Test results as given in patent US20180338955A1, “METHODS FOR REGULATION AND TREATMENT OF GLIOMA CELL MIGRATION AND GLIOBLASTOMA” (priority 2015, published 2018).

Chains of the proteins cited; added tags and fusions are not shown.
UniProt P07947, whole entry: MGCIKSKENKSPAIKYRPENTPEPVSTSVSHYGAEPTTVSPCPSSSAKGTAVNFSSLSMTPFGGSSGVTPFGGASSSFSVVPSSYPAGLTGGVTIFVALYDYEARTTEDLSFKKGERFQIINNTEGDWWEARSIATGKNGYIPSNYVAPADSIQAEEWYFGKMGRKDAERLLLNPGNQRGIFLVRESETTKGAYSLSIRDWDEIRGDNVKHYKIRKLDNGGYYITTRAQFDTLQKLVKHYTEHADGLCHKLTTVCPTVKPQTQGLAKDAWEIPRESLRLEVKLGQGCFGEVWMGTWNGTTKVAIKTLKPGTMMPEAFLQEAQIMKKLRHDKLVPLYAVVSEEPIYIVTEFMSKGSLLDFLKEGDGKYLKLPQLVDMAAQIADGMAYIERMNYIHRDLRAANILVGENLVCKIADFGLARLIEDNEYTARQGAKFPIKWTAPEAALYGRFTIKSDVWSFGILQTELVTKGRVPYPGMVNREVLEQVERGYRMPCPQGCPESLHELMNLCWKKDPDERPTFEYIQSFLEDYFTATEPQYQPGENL

Target: T1, Yes (Homo sapiens, UniProt P07947)
T1 construct: U87 MG cells treated with A77 or DMSO vehicle were lysed in 1×RIPA buffer; endogenous in cells; called human GSCs
Assay: Immunoprecipitation/Western blot, phosphorylation state of Yes
Assay type: cell-based
Details: human glioma cells, 500 nm
Experimental: For immunoprecipitation studies, U87 MG cells treated with A77 or DMSO vehicle were lysed in 1×RIPA buffer containing protease and phosphatase inhibitors (Sigma). Lysates were cleared via centrifugation and were pre-cleared with TrueBlot anti-rabbit IgG beads (eBiosience) to remove non-specific binding. Primary antibodies against Lck, Src, Fyn, Lyn or Yes (Cell Signaling) were added and the lysates were incubated overnight at 4° C. with gentle rotation. The following day, TrueBlot anti-rabbit IgG (eBioscience) beads were added to the lysate and incubated at 4° C. for 2 hours. Immunoprecipitates were washed, solubilized in 2×Laemmli buffer and boiled for 5 minutes. The supernatants were separated on an 8% Bis-Tris SDS-PAGE gel, transferred to nitrocellulose and immunoblotted.

COc1cc(-c2nn([C@H]3CC[C@H](N4CCN(C(C)=O)CC4)CC3)c3ncnc(N)c23)ccc1NC(=O)c1cc2ccccc2n1C [Lck-I, A770041]
phosphorylation state of Yes: does not affect; also recorded: no effect

“Also recorded” adds a separate entry of the source.
